One compound from ChEMBL document CHEMBL1681690, “Discovery of TAK-733, a potent and selective MEK allosteric site inhibitor for the treatment of cancer” (Bioorg Med Chem Lett, 2011) can be followed below.

Sequences of proteins named here, by UniProt entry; tags and fusion partners are left off.
UniProt Q02750, whole entry: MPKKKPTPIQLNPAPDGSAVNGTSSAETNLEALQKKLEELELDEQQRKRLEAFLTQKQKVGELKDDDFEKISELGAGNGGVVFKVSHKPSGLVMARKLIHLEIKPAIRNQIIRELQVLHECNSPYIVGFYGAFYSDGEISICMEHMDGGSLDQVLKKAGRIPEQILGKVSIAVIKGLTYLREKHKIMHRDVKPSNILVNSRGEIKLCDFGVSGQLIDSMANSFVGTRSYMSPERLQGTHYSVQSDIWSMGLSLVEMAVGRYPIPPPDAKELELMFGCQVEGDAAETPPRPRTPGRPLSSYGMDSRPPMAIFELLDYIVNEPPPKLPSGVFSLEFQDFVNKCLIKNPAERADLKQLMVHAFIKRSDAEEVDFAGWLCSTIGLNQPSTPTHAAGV

The structures appear in SMILES notation.

The assay deals with Dual specificity mitogen-activated protein kinase kinase 1 (Homo sapiens, UniProt Q02750).

As usually defined, the IC50 is the concentration that inhibits the measured activity by half.

`Cn1cnc2c(c(Nc3ccc(I)cc3F)cc(=O)n2C)c1=O` yielded an IC50 of 26 nM.
